Patent publication US8389538B2, “Rexinoid compound having alkoxy group” (National University Corporation Okayama University, priority 2007, dated 2013)

What was measured:
Type in all cases: cell-based
RXRγ = biological target: T1, RXRγ (Homo sapiens, UniProt P48443); test: RXR reporter gene assay (luciferase) in COS-1 cells, RXRγ
T1 construct: expressed in transfected cells; host or cells: COS-1 cells
T1 sequence (P48443 1-463): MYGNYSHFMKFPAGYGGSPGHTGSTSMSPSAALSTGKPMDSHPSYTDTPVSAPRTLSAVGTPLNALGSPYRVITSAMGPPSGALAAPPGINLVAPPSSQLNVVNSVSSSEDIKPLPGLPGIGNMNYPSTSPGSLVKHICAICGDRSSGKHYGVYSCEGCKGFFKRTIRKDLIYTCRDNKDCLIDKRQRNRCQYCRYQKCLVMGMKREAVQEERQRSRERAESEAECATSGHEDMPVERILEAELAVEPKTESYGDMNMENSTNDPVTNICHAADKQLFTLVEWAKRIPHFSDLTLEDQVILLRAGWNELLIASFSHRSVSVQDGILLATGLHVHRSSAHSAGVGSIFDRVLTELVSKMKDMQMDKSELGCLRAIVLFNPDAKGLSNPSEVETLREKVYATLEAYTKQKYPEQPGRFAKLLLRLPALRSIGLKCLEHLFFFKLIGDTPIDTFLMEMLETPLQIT

[1] = system: Human leukemia cell strain HL-60; test: HL-60 differentiation induction (NBT reduction method)
Description: Human leukemia cell strain HL-60 differentiates into granulocytes (neutrophils) to come to have an ability to express active oxygen. […] A method for measuring differentiation inducibility of cells into granulocytes by using this principle is referred to as NBT reduction method. So, the differentiation inducibility of the synthesized compound was measured by NBT reduction method. Fetal bovine serum (FBS) was added to RPMI-1640 media into 10 v/v % and further antibiotics (penicillin and streptomycin) added, and that was used as a growth medium to culture human leukemia cell strain HL-60. […] Each compound was dissolved in dimethylsulfoxide (DMSO) into 20 mM to prepare a stock solution. NBT was prepared into 0.2 w/v % by using PBS (−) 2 hours before use and incubated at 37° C. TPA was dissolved in ethanol (EtOH) into 2 mg/mL to prepare a stock solution. This TPA solution was prepared into 20 μg/mL by using PBS (−) at the time of use. […] The action of RXR agonist is enhanced by the combined use of that and RAR agonist. […] After four days cultivation, cells were collected by centrifugation (4° C., 1500 rpm, 5 minutes). […] Then, stained cell number and total cell number were counted on a cell counter. Meanwhile, the measurement was conducted three times by counting 200 cells or more at a time and a differentiation inducing rate was calculated from a mean value obtained by averaging them. […]

RXRβ = biological target: T2, RXRβ (Homo sapiens, UniProt P28702); test: RXR reporter gene assay (luciferase) in COS-1 cells, RXRβ
T2 construct: expressed in transfected cells; host or cells: COS-1 cells
T2 sequence (P28702 1-533): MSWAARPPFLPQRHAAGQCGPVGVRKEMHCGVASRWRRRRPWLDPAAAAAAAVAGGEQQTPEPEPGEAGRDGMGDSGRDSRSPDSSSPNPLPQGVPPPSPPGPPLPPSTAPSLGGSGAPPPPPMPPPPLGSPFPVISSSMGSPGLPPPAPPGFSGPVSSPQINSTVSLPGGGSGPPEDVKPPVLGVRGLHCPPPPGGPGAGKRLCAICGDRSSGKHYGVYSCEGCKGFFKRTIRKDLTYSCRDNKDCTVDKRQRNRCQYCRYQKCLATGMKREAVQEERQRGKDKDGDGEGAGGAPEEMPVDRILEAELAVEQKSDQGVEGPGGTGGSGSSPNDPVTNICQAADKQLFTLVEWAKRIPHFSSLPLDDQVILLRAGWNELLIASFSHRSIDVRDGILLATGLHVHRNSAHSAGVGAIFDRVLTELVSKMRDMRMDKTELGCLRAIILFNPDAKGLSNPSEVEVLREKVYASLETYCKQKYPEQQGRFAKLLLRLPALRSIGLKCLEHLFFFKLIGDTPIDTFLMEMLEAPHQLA

EC50 (RXRγ): 11 nM
Emax at 1 µM (RXRγ; COS-1, read-out: RXRγ Emax (%)): 100%
EC50 (RXRβ): 24 nM
Emax at 1 µM (RXRβ; COS-1, read-out: RXRβ Emax (%)): 100%
SMILES: CC1(C)CCC(C)(C)c2cc(N(CC3CC3)c3ncc(C(=O)O)cn3)ccc21 [PA024, reference compound]
Retinoid synergistic activity BA(%) [1]: 80%
